Bioassay records as filed in PubChem.
Rows were chosen to be rich in hits. Some 1.3% of all compounds tested hit in one or more screens of this group.
ERG Ets-DNA blk: blocks human ERG Ets domain binding to DNA. P11308. fluorescence polarization, His-ERG Ets domain / labelled DNA. Potency, µM (titrated, usually from 76.9 µM), inactives show at the top dose FP activity, negative = inhibition, most hits filed as inhibitors. actives 0.028% (n = 370,000). AID 624246; active means well fitted inhibition curve with a large enough effect in the polarisation, with a control signal flat; inconclusive means small, poorly fitted or top-dose-only effect, or effect the other way, or a change in a side signal; inactive means no such curve, though single readings can be large or run the other way; the % refers to the polarisation;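 further: polarization taken with two DNA probes labelled with fluorescein and Texas red; potency means the concentration at half of the fitted maximal effect; % of control where 0% means no effect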
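His-tagged ERG Ets domain (1 uM in the protein solution; 300mM KCl, 50mM Tris-HCl, 1mM EDTA, 1mM DTT, pH 7.5) received compound, then a probe mix of 5 nM fluorescein-DNA and 100nM Texas-615-DNA. Fluorescence polarization was read for both dyes.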
PTHR1 agonist: agonists of human PTHR1 parathyroid hormone receptor. Q03431. actives 0.075% (n = 410,000). HEK293 GP2 PTHR1 cells, GloSensor cAMP luminescence, 1 h. Potency, µM (doses to about 115 µM), for inactives: at the top dose activation, actives largely listed as activators; further: potency means the concentration at half of the fitted maximal effect; nearly all actives have a fitted effect of over 55% in size
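HEK-293-derived GP2 cells expressing PTHR1 and a GloSensor cAMP reporter, 3,000/well, plated overnight, given luciferin plus IBMX (each 0.5 mM as added) for 1 h at 37 °C, then compound for 1 h at 37 °C. Luminescence was read after 15 min at room temperature.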
miR-21 FLuc: raises the signal of a miR-21 reporter | Potency, µM (doses to about 38.3 µM), for inactives: top-dose reporter change, positive = more light | HeLa miR-21 FLuc reporter, luciferase, 48 h | AID 2288 | 340,000 tested, under 10 active; active = well fitted rising curve with a large enough effect; inconclusive = small, poorly fitted or top-dose-only effect; inactive = no such curve, though single readings can be large or run the other way;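 also: % of control where 0% means no effect; miR-21 action dims this reporter so a rising signal means less miR-21 action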
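HeLa cells endogenously expressing miR-21, stably carrying CMV-driven firefly luciferase with a downstream miR-21 binding site, 2000 cells/well. Titrations up to approximately 40 uM, 48 hours; luciferase luminescence read.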
Giardia killer: kills Giardia lamblia | AID 540267 | Giardia lamblia trophozoite viability | actives 0.15% (n = 340,000) | activity change, % at 7.66 µM, hits read low; in the data active means activity change below about -80%; inconclusive means between about -30% and that limit;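 further: parasites exposed to compound for two days anaerobically before the ATP read; on the % scale 0 is the no-effect control and ±100 the full control effect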
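ATP-content bioluminescence gauges trophozoite survival. Cells (100/well) receive compound and incubate anaerobically for 48 hrs at 37 deg C; detection reagent follows for 15-30 min at room temperature.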
PINK1 expr mod: modulators of PINK1 expression. PINK1 immunofluorescence, high-content cytometry, 24 h. Potency, µM (doses to about 76.6 µM), inactives show top-dose activation (PINK1 increase), hits mostly activators. actives 0.2% (n = 410,000). AID 624263; active means well fitted activation curve with a large enough effect; inconclusive means small, poorly fitted or top-dose-only effect; cell line not stated here; further: potency means the concentration at half of the fitted maximal effect; % of control where 0% means no effect; nearly all actives have a fitted effect of over 65% in size
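Measures PINK1 amount and localization on or inside mitochondria by immunofluorescence. Stable cells get compounds at 5 concentrations for 24 hours before fixation and staining; CCCP controls included.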
12-LOX inh: blocks human arachidonate 12S-lipoxygenase; P18054; purified 12hLO, xylenol orange hydroperoxide absorbance; Potency, µM (series often up to 108 µM), inactives show at the top dose activity change, negative = inhibition, most hits filed as inhibitors; actives 1.1% (n = 580,000); further: potency means the concentration at half of the fitted maximal effect; on the % scale 0 is the no-effect control and ±100 the full control effect
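Purified human 12hLO (150 nM final) in 25 mM Hepes, 0.01% Triton X-100, pH 7.0 was preincubated 15 min at room temperature with compound. Then 40 uM arachidonic acid was added, 30 min. Hydroperoxide was read by Fe-XO absorbance ratio 573/405 nm.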
Active calls of the source: *; i = inactive; ? = inconclusive; · = not tested or not shown; [ ] = another dose, or the depositor's remark. Unless noted, the call rests on the fitted dose curve; in most records, active means well fitted curve in the direction sought with a large enough effect; inconclusive means small, poorly fitted or top-dose-only effect, or another doubt; inactive means no such curve, though single readings can be large; an effect the other way counts as inactive or inconclusive.

Every second line gives: ERG Ets-DNA blk | PTHR1 agonist | miR-21 FLuc | Giardia killer | PINK1 expr mod | 12-LOX inh
1	CCN(CC)c1ccc(/C=C2\C(=O)NC(=O)N(Cc3ccco3)C2=O)cc1
 : 52.3% | i | -2.2% | -9.4 | 2.5% | 44.7µM*
2	CCN(CC)c1ccc(/C=C2/C(=O)NC(=O)N(CC3CCCO3)C2=O)cc1 (stereo not drawn)
 : -4.7% | i | -0.3% | -3.5 | 0.7% | -32.0%
3	O=C(CF)N(O)c1ccc(C=Cc2ccccc2)cc1
 : -3.9% | -8.6% | · | -10.7 | -2.0% | -2.9%
4	COC(=O)C1=C(c2c(C)noc2C)C[C@@H]2CC[C@H]1N2C(=O)N1CCc2cc(OC)c(OC)cc2C1
 : -6.7% | i | · | 11.3 | 2.7% | ·
5	C/C=C/c1ccc2c(c1)OCO2
 : ? | i | · | -13.5 | 0.7% | -7.1%
6	O=[N+]([O-])/C=C\c1ccc2c(c1)OCO2
 : · | · | · | · | · | 11.2µM*
7	O=C(O)c1ccc2c(c1)C1C(Cl)C(Sc3ccccc3[N+](=O)[O-])CC1C(c1cccc([N+](=O)[O-])c1)N2 (stereo not drawn)
 : 3.8% | -30.8% | -1.0% | 5.5 | 0.7% | ·
8	O=C(O)c1cccc2c1NC(c1cccc([N+](=O)[O-])c1)C1CC(Sc3ccccc3[N+](=O)[O-])C(Cl)C21 (stereo not drawn)
 : -6.8% | -46.6% | -15.9% | -6.9 | -2.8% | 8.91µM*
9	CCOP(=O)(Nc1ccc2c(c1)C(=NNC(N)=S)c1ccccc1-2)OCC
 : · | -6.2% | · | 7.9 | 0.3% | 22.4µM*
10	O=C1C(I)=CC(=C(c2cc(I)c(O)c(I)c2)c2ccccc2C(=O)O)C=C1I
 : · | · | · | · | · | 5.1µM*
11	O=C(Nc1cc[c]([Sb](=[O])([OH])[OH])cc1)c1ccccc1
 : · | · | · | · | -0.6% | ·
12	N#Cc1cc(NC(=O)c2ccc(Cl)cc2)ccc1Sc1ccccc1
 : · | -17.3% | · | · | 25.1µM* | -1.0%
13	O=C(O)c1ccccc1-c1ccc(C=C2C(=O)N(c3ccccc3)C(=S)N(c3ccccc3)C2=O)o1
 : 33.0% | -22.7% | -6.2% | 20.2 | 0.2% | 31.6µM*
14	COc1ccc(S(=O)(=O)N2[C@H]3CC[C@@H]2c2cncnc2C3)cc1
 : · | · | · | · | · | -10.9%
15	CC(C)c1ccc(-n2c(O)c(/C=N/NC(=O)c3ccccc3O)c(=O)[nH]c2=S)cc1
 : 5.3% | -10.5% | -4.7% | -12.9 | 0.9% | 39.8µM*
16	CC(=O)OC1CCC2(C)C(CCC3C2CC(=O)C2(C)C3CC(N3CC3)C2C(C)=O)C1 (stereo not drawn)
 : · | 50.1µM* | · | -7.7 | 0.3% | 22.4%
17	C[N+](C)(C)CC1CCCCC1=O (stereo not drawn)
 : · | · | · | · | · | 12.6µM*
18	Cc1ccc(-n2c(/C=C/c3cccs3)nc3ccccc3c2=O)cc1C
 : -1.9% | -23.5% | 3.3% | · | -1.1% | 0.8%
19	CCOP(=S)(OCC)c1ccc(N(C)C)cc1
 : 7.6% | 17.8µM* | -9.0% | 2.3 | 9.7%[38.3 µM] | -7.9%
20	Cc1n[nH]c(C)c1CCCCOc1ccc([N+](=O)[O-])cc1
 : -1.9% | -36.7% | 7.8% | 12.8 | -0.7% | -15.8%
21	COc1cc2c(cc1OCc1ccc(Cl)cc1)N(Cc1ccccc1)CC21CCN(C(C)=O)CC1
 : · | · | · | · | · | 31.6µM*
22	CC1=NCCc2c1[nH]c1ccccc21
 : 11.7% | i | 1.5% | -11.0 | 0.6% | -25.7%
23	O=C1NC(=S)NC(=O)C1c1ccccc1
 : 2.4% | i | · | -2.4 | 1.1% | 31.6µM*
24	O=C1NC(=S)NC(=O)C12C(c1ccccc1)NC(=S)NC2c1ccccc1 (stereo not drawn)
 : -0.4% | -20.5% | -6.5% | 6.4 | 4.4% | ?
25	O=C(COc1ccccc1)N1CCN(C2CCCC2)CC1
 : -4.2% | i | -6.6% | 11.2 | 8.2% | ?
26	O=C(Cc1ccccc1)N1CCN(C2CCCC2)CC1
 : -2.3% | -2.7% | -1.5% | -18.6 | -1.0% | 0.891µM*
27	CNC(=S)N1CCn2cccc2C1c1cccnc1 (stereo not drawn)
 : 12.7% | 15.3% | -0.8% | 5.1 | 0.3% | -3.2%
28	CC(C)C1C(=O)N2CCC[C@H]2[C@]2(O)O[C@](NC(=O)[C@@H]3C=C4c5cccc6[nH]cc(c56)C[C@H]4N(C)C3)(C(C)C)C(=O)N12 (stereo partly drawn)
 : · | · | · | · | · | 22.3%
29	CC(C)[C@H]1C(=O)N[C@H](CO)Cc2c[nH]c3cccc(c23)N1C
 : · | · | · | · | · | 39.8µM*
30	COc1cc2c(cc1Oc1ccccc1)NC(=O)C21CCN(C(=O)C(C)C)CC1
 : · | · | · | · | · | 5.2%[176 µM]
31	Nc1ccccc1C(=O)OCC(O)CO (stereo not drawn)
 : · | · | · | · | · | 0.0%[22.9 µM]
32	O=C1NC(=O)C(=Cc2ccc(SC3CCCCC3)o2)C(=O)N1
 : 29.0% | i | 22.8% | -0.8 | -1.9% | 22.4µM*
33	COc1cc2c(cc1OCc1ccccc1)NC(=O)C21CCN(c2cnccn2)CC1
 : · | · | · | · | · | -0.5%[176 µM]
34	O=C1NC2(CN(Cc3ccccn3)C2)Oc2ccccc21
 : · | · | · | · | · | 104.3%[176 µM]
35	CCOc1ccccc1N=C1SCCCN1C
 : -7.5% | i | 0.0% | -5.2 | 4.6%[38.3 µM] | 7.08µM*
36	CCOc1ccccc1C(=O)N1CCC2(CC1)NCc1ccccc1-n1ccnc12
 : · | · | · | · | · | 66.0%
